Data from patent publication US7989447B2, “1,5 and 3,6-substituted indole compounds having NOS inhibitory activity” (NeurAxon, Inc., priority 2006, dated 2011).

Molecular target: human endothelial constitutive NOS (eNOS) (Homo sapiens, UniProt P29474)
Assay: eNOS (Human) enzyme assay, radiometric conversion of [3H]L-arginine to [3H]L-citrulline
Assay type: biochemical
Settings: recombinant human enzyme, 37° C., 45 min
Procedure: Recombinant human inducible NOS (iNOS), human endothelial constitutive NOS (eNOS) or human neuronal constitutive NOS(nNOS) were produced in Baculovirus-infected Sf9 cells (ALEXIS). In a radiometric method, NO synthase activity was determined by measuring the conversion of [^3H]L-arginine to [^3H]L-citrulline. To measure iNOS, 10 μL of enzyme was added to 100 μL of 100 mM HEPES, pH=7,4, containing 1 mM CaCl2, 1 mM EDTA, 1 mM dithiotheitol, 1 μM FMN, 1 μM FAD, 10 μM tetrahydrobiopterin, 120 μM NADPH, and 100 nM CaM. To measure eNOS or nNOS, 10 μL of enzyme was added to 100 μL of 40 mM HEPES, pH=7.4, containing 2.4 mM CaCl2, 1 mM MgCl2, 1 mg/mL BSA, 1 mM EDTA, 1 mM dithiothreitol, 1 μM FMN, 1 μM FAD, 10 μM tetrahydrobiopterin, 1 mM NADPH, and 1.2 μM CaM.
To measure enzyme inhibition, a 15 μL solution of a test substance was added to the enzyme assay solution, followed by a pre-incubation time of 15 min at RT. The reaction was initiated by addition of 20 μL L-arginine containing 0.25 μCi of [^3H]arginine/mL and 24 μM L-arginine. The total volume of the reaction mixture was 150 μL in every well. The reactions were carried out at 37° C. for 45 min. […] An 70 μL aliquot of the supernatant was added to 100 μL of scintillation fluid and the samples were counted in a liquid scintillation counter (1450 Microbeta Jet, Wallac). […]

An IC50 of 15.8 µM was found for `CN1CCC(n2ccc3cc(NC(=N)c4cccs4)ccc32)CC1` [Compound 82, N-(1-(1-methylpiperidin-4-yl)-1H-indol-5-yl)thiophene-2-carboximidamide] in this work.
